Source: patent US20140030266A1

Tests used:
[1] = target: MIF receptor CD74 ectodomain (CD74 73-232, sCD74) (UniProt P04233); assay: SPR (BIAcore 2000), sCD74 immobilized
[2] = target: MIF receptor CD74 ectodomain (CD74 73-232, sCD74) (UniProt P04233); assay: SPR (BIAcore 2000), sCD74 immobilized, ligand in solution

B1: human macrophage migration inhibitory factor (MIF), recombinant (ligand, UniProt P14174 2-115, looked up)
chain: PMFIVNTNVPRASVPDGFLSELTQQLAQATGKPPQYIAVHVVPDQLMAFGGSSEPCALCSLHSIGKIGGAQNRSYSKLLCGLLAERLRISPDRVYINYYDMNAANVGWNNSTFA
fold lower dissociation rate (kd) than D-DT [1]: 11 fold | koff [1]: 6e-05 s⁻¹ | kon [1]: 43000 M⁻¹ s⁻¹ | Kd [2]: 1.4 nM
